These results are taken from patent publication US6451784B1 (priority 1996, dated 2002).

Several values for one entry are separate records, joined by “and”; a condition that tells them apart may be missing. Identical values can stand only once.

In one series the test system is Sprague Dawley rats. Put plainly: Vesicant activity test: single intradermal injection, dermal lesion size. As to conditions: for Individual Lesion Size Measurements, Day of Test (post injection) 20: day 20; for Individual Lesion Size Measurements, Day of Test (post injection) 22: day 22; for Individual Lesion Size Measurements, Day of Test (post injection) 24: day 24; for Vesicant classification as determined by the methods used herein: lesion of at least about 20 mm^2 in at least one half of animals at day 15, severe: at least one-half still >about 10 mm^2 at day 31; for Individual Lesion Size Measurements, Day of Test (post injection) 27: day 27.

The next series has as its system patients. To be noted: IV administered drug, Physicians Desk Reference 1997; cited from earlier work.
The mark [1] stands for this setting: rat, 0.2 ml intradermal at clinical concentration, individual animals.

In the case of `CC(=O)O[C@H]1C(=O)[C@@]2(C)[C@H]([C@H](OC(=O)c3ccccc3)[C@]3(O)C[C@H](OC(=O)[C@H](O)[C@@H](NC(=O)c4ccccc4)c4ccccc4)C(C)=C1C3(C)C)[C@]1(OC(C)=O)CO[C@@H]1C[C@@H]2O` [Taxol, Paclitaxel], in the series on Sprague Dawley rats (setting [1]), the “Individual Lesion Size Measurements, Day of Test (post injection) 20” value is reported as 5.6 mm^2; the “Individual Lesion Size Measurements, Day of Test (post injection) 22” value is on record as 2.1 mm^2; the “Individual Lesion Size Measurements, Day of Test (post injection) 24” value is recorded as 1.8 mm^2. For the same compound, the “Alopecia of the dorsal body (animals affected/animals)” value (“Alopecia … (animals affected/animals)” below) with Sprague Dawley rats (rat, intradermal injection) is listed as 7/7.

For `O=c1[nH]cc(F)c(=O)[nH]1`, the “Vesicant classification as determined by the methods used herein” value (“Vesicant classification as determined” for short) in the series with Sprague Dawley rats was “non-vesicants”. The “Individual Lesion Size Measurements, Day of Test (post injection) 22” value with Sprague Dawley rats (setting [1]) was determined as 2.0 mm^2. Further, in the series with Sprague Dawley rats (rat, intradermal injection), the “Alopecia … (animals affected/animals)” value is 7/7 and the “Rough coat (animals affected/animals)” value is 1/7.

With `CO[C@@]12[C@H](COC(N)=O)C3=C(C(=O)C(C)=C(N)C3=O)N1C[C@@H]1N[C@@H]12` [Mutamycin, mitomycin], the “Individual Lesion Size Measurements, Day of Test (post injection) 41” value in the series on Sprague Dawley rats (rat, 0.2 ml intradermal at clinical concentration, individual animals, day 41) came to 25.6 mm^2. Further, in the series on Sprague Dawley rats (rat, intradermal injection), the “Alopecia … (animals affected/animals)” value is 4/7, the “Discoloration of the skin around the site of injection” value was “Discoloration of the skin around the site of injection was seen”, the Edema entry is recorded as “Moderate edema” and the “Lesions lasting until the test termination at day 41” value is “only one animal of seven still had lesions to the end of the test”.

On to bleomycin, for which, in the series on Sprague Dawley rats, the “Vesicant classification as determined” value was “non-vesicants”. Further, in the series on Sprague Dawley rats (setting [1]), the “Individual Lesion Size Measurements, Day of Test (post injection) 20” value is 1.3 mm^2 and 1.0 mm^2; the “Individual Lesion Size Measurements, Day of Test (post injection) 22” value is listed as 0.6 mm^2; the “Individual Lesion Size Measurements, Day of Test (post injection) 27” value is 0.4 mm^2. In the series with Sprague Dawley rats (rat, intradermal injection), the “Alopecia … (animals affected/animals)” value is 7/7. In addition, the “Pulmonary toxicities, share of treated patients” value in the series with patients is recorded as “about 10 % of treated patients”.

Turning to 9-aminocamptothecin, the “Vesicant classification as determined” value with Sprague Dawley rats is “non-vesicants”.

With `Nc1ccn([C@@H]2O[C@H](CO)[C@@H](O)[C@@H]2O)c(=O)n1` [cytarabine], in the series with Sprague Dawley rats, the “Vesicant classification as determined” value is “non-vesicants”. Also, in the series with Sprague Dawley rats (rat, intradermal injection), the “Abrasions of the dorsal body” value is “all drugs except cytarabine”; the Dermal lesions entry is on record as “all drugs except for cytarabine”; the Severe erythema entry is “all drugs except for cisplatin (platinol) and cytarabine”.

Consider `COc1cccc2c1C(=O)c1c(O)c3c(c(O)c1C2=O)C[C@@](O)(C(=O)CO)C[C@@H]3O[C@H]1C[C@H](N)[C@H](O)[C@H](C)O1` [Doxorubicin, doxorubicin], for which, in the series with Sprague Dawley rats (rat, intradermal injection), the “Alopecia … (animals affected/animals)” value is reported as 3/7, the Edema entry is given as “Moderate edema” and the “Lesions lasting until the test termination at day 41” value was “lesions that lasted until the test termination at day 41”.

For the compound `O=P1(N(CCCl)CCCl)NCCCO1` (stereo not shown), the “Vesicant classification as determined” value in the series with Sprague Dawley rats is “non-vesicants”. Also, in the series with Sprague Dawley rats (setting [1]), the “Individual Lesion Size Measurements, Day of Test (post injection) 20” value is 12.1 mm^2 and 13.2 mm^2 and 17.4 mm^2; the “Individual Lesion Size Measurements, Day of Test (post injection) 22” value was 12.5 mm^2 and 12.2 mm^2 and 14.6 mm^2; the “Individual Lesion Size Measurements, Day of Test (post injection) 24” value was 14.0 mm^2 and 12.7 mm^2 and 15.6 mm^2; the “Individual Lesion Size Measurements, Day of Test (post injection) 27” value was 7.8 mm^2 and 7.5 mm^2 and 4.1 mm^2. The “Individual Lesion Size Measurements, Day of Test (post injection) 29” value in the series with Sprague Dawley rats (rat, 0.2 ml intradermal at clinical concentration, individual animals, day 29) is 2.4 mm^2 and 1.8 mm^2 and 2.0 mm^2. Moreover, in the series on Sprague Dawley rats (rat, 0.2 ml intradermal at clinical concentration, individual animals, day 31), the “Individual Lesion Size Measurements, Day of Test (post injection) 31” value came to 1.5 mm^2.

In the case of `CCC1=C[C@@H]2CN(C1)Cc1c([nH]c3ccccc13)[C@@](C(=O)OC)(c1cc3c(cc1OC)N(C)[C@H]1[C@@](O)(C(=O)OC)[C@H](OC(C)=O)[C@]4(CC)C=CCN5CC[C@]31[C@@H]54)C2`, in the series on Sprague Dawley rats (rat, intradermal injection), the “Alopecia … (animals affected/animals)” value was 7/7, the “Lesions lasting until the test termination at day 41” value is “lesions that lasted until the test termination at day 41” and the “Rough coat (animals affected/animals)” value is given as 2/7.

For the compound `COc1cc([C@@H]2c3cc4c(cc3[C@@H](O[C@@H]3O[C@@H]5CO[C@@H](C)O[C@H]5[C@H](O)[C@H]3O)[C@H]3COC(=O)[C@H]23)OCO4)cc(OC)c1O` [Etoposide, etoposide], the “Vesicant classification as determined” value with Sprague Dawley rats is reported as “non-vesicants”. Moreover, the “Alopecia … (animals affected/animals)” value in the series with Sprague Dawley rats (rat, intradermal injection) is listed as 7/7.

For the compound `CC[C@]1(O)C[C@H]2CN(CCc3c([nH]c4ccccc34)[C@@](C(=O)OC)(c3cc4c(cc3OC)N(C=O)[C@H]3[C@@](O)(C(=O)OC)[C@H](OC(C)=O)[C@]5(CC)C=CCN6CC[C@]43[C@@H]65)C2)C1` [Vincristine, vincristine], in the series with Sprague Dawley rats (rat, intradermal injection), the “Alopecia … (animals affected/animals)” value is on record as 2/7, the “Lesions lasting until the test termination at day 41” value is “lesions that lasted until the test termination at day 41”, the “Rough coat (animals affected/animals)” value is 4/7 and the Systemic effects entry is reported as “Systemic effects were observed only for vincristine”.
